The structures appear in SMILES notation. Only a part is listed here, and it is no random draw. Active and inactive are the calls of the source. The calls were made as follows: active = max response of -50% or lower; inconclusive = between -30% and -50%; inactive = -30% or higher.
% is scaled to controls: 0 for no effect and ±100 for the full control effect.

The chains behind the UniProt entries cited, without tags or fusion partners.
UniProt P48426, whole entry: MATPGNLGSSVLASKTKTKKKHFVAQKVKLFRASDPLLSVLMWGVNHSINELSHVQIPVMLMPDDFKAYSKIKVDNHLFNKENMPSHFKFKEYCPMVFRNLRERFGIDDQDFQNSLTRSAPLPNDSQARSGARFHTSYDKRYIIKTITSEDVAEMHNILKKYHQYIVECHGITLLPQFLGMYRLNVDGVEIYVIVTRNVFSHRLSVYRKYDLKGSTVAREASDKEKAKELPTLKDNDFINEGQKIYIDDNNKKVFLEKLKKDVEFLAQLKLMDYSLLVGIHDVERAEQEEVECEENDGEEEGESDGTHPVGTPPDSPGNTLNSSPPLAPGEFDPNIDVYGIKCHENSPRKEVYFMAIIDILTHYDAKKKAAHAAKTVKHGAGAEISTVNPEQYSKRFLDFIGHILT

This assay has as its target Phosphatidylinositol 5-phosphate 4-kinase type-2 alpha (Homo sapiens) (UniProt P48426). As to the kind of experiment: qHTS for Inhibitors of phosphatidylinositol 5-phosphate 4-kinase (PI5P4K). Also: value at the top dose of about 77 µM. The following applies: PI5P4Kalpha enzyme, ADP-Glo luminescence, 60 min; hits give low values. The text has this: In addition to finding PI5P, we discovered the type II phosphatidylinositol 5-phosphate 4-kinase (PI5P4K) family (alpha, beta, gamma isoforms) that catalyze the conversion of PI5P to PI(4,5)P2. Alternatively, PI(4,5)P2 can also be synthesized through phosphatidylinositol-4-phosphate (PI4P) by the type I phosphatidylinositol 4-phosphate 5-kinases (PI4P5K). These PI5P4K enzymes therefore represent one way by which cells can regulate endogenous PI5P levels and play important roles in insulin signaling and in stress responses.
This proposal aims to identify and optimize specific modulators of human PI5P4K, phosphatidylinositol-5-phosphate 4-kinase (Type II PIPK), a family of kinases that regulate AKT signaling and tumor cell growth. In this project we aim to identify inhibitors of human PI5P4K using a quantitative high-throughput screening approach against the MLSMR containing ~400,000 small molecules.
NIH Chemical Genomics Center [NCGC]
NIH Molecular Libraries Probe Centers Network [MLPCN]
Assay Submitter (PI): Atsuo Sasaki, Beth Israel Deaconess Medical Center
2 microL of PI5P4Kalpha/substrate buffer (columns 1-2, 5-48) are dispensed into Greiner white solid bottom 1536-well assay plates; column 3 receives only PI5P4Kalpha buffer as 0x substrate controls; column 4 receives only substrate buffer as 0x PI5P4Kalpha controls. Final assay buffer consists of 0.038 M HEPES pH 7.4, 0.28 mM EGTA, 0.1% CHAPS, and 5% DMSO (final concentration). Compounds are then transferred via Kalypsys pin tool equipped with 1536-pin array (10 nL slotted pins, V&P Scientific, San Diego, CA). Following addition of compound, 1 microL of ATP (5 microM final concentration, all columns) is added to initiate the reaction. ATP is diluted in an assay buffer consisting of 0.02 M HEPES pH 7.4, 60 mM MgCl2, 15 microM ATP, and 0.1% CHAPS. The plates are then incubated at room temperature for 60 minutes. ADP-Glo reagent 1 is added (2 microL) and plates incubated for 45 minutes, before ADP-Glo reagent 2 (4 microL) is added and plates incubated for 30 minutes. They are then transferred to a ViewLux high-throughput CCD imager (PerkinElmer) wherein single end-point measurements of luminescence are acquired using a clear filter.
Consider `COc1cc(OC)cc(C(=O)NCC2(N3CCCCC3)CCCCC2)c1`, for which the max response is inactive: -2.29%.

With `O=c1[nH]c2ccccc2n1C1CCN(C(c2ccnc3ccccc23)c2nnnn2C2CCCCC2)CC1` (stereo not given), the max response is inactive: -0.834%.

As for `CC(C)(C)n1nnnc1C(c1cccc2ccccc12)N1CCC(n2c(=O)[nH]c3ccccc32)CC1` (stereo not given), the max response is inactive: -0.572%.

Turning to `CN(C)C1(CNC(=O)c2cccc(C#N)c2)CCCCC1`, the max response is inactive: 2.42%.

For the compound `O=c1[nH]c2ccccc2n1C1CCN(C(c2ccccc2)c2nnnn2C2CCCC2)CC1` (stereo not given), the max response was inactive: -0.334%.

`CCCN1CCC(Nc2cc(OC)cc(OC)c2)CC1`: the max response is inactive: 2.76%.

For the compound `Cc1cc(N(CCCl)CCCl)ccc1C=O`, the max response is inactive: -0.645%.

As to `c1ccc(CN2CCC(Nc3ccccc3)CC2)cc1`, the max response was inactive: -3.04%.

Take `CCOC(=O)C(CC)C1=NC(C)(C)Cc2ccccc21.O=[N+]([O-])c1cc([N+](=O)[O-])c(O)c([N+](=O)[O-])c1` (stereo not given): the max response is inactive: -19.5%.

`N#Cc1ccc(C(=O)NCC2(N3CCCCC3)CCCCC2)cc1`: the max response was inactive: 5.1%.

Turning to `CC(C)(C)OC(=O)N1CCC(N(C(=O)c2ccccc2)c2ccc(Cl)cc2)CC1`, the max response is inactive: 9.56%.

Regarding `O=C(O)c1cccc(Nc2c([N+](=O)[O-])cc([N+](=O)[O-])cc2[N+](=O)[O-])c1`, the max response is inactive: -7.04%.

Regarding `O=c1[nH]c2ccccc2n1C1CCN(C(c2cccs2)c2nnnn2C2CCCC2)CC1` (stereo not given), the max response was inactive: -1.51%.

In the case of `CCc1cc(C(=O)NCC2(N3CCCCC3)CCCCC2)sc1C`, the max response is inactive: -4.47%.

As for `O=C(OC1CN2CCC1CC2)C1c2ccccc2C=Cc2ccccc21` (stereo not given), the max response is inactive: 2.71%.

For the compound `CCCCn1nnnc1C(c1cccc(OC)c1OC)N1CCC(n2c(=O)[nH]c3ccccc32)CC1` (stereo not given), the max response was inactive: 4.34%.

As to `CCOC(=O)N1CCC(Nc2ccc(C)cc2)CC1`, the max response was inactive: 0%.

For the compound `COc1cccc(C(c2nnnn2C(C)(C)C)N2CCC(n3c(=O)[nH]c4ccccc43)CC2)c1OC` (stereo not given), the max response was inactive: -3.08%.

Take `N/C(=N\O)c1c(N)no[n+]1[O-]`: the max response is inactive: -6.33%.

Consider `O=c1[nH]c2ccccc2n1C1CCN(C(c2cccs2)c2nnnn2C2CCCCC2)CC1` (stereo not given), for which the max response is inactive: 2.5%.

Turning to `O=c1[nH]c2ccccc2n1C1CCN(C(c2ccnc3ccccc23)c2nnnn2C2CCCC2)CC1` (stereo not given), the max response is inactive: -4.41%.

Turning to `COc1ccc(C(=O)NCC2(N3CCOCC3)CCCCC2)cc1OC`, the max response is inactive: 3.65%.

As to `COc1cc(C(=O)NCC2(N3CCOCC3)CCCCC2)cc(OC)c1C`, the max response was inactive: -2.31%.

As to `CCCCn1nnnc1C(c1ccccc1)N1CCC(n2c(=O)[nH]c3ccccc32)CC1` (stereo not given), the max response is inactive: -1.4%.

Regarding `O=C(NCC1(N2CCOCC2)CCCCC1)c1cc(Br)ccc1Cl`, the max response was inactive: 3.98%.

The record behind these values is PubChem BioAssay AID652105 (National Center for Advancing Translational Sciences (NCATS), 2013).
